Like-named read-outs stand apart in the source and are kept apart here.
Assays:
in vivo [1] = conditions: rat, ip, acute toxicity, intraperitoneal administration, rats, read-out: DL50 A. IP
in vivo [2] = conditions: rat, acute toxicity, oral administration, rats, read-out: DL 50 A.O

`O=C(c1ccc(O)c(O)c1)c1cccc(O)c1O` [2,3,3',4'-Tetrahydroxybenzophenone, 2,3,3',4'-tetrahydroxybenzophenone] gave an LD50 (in vivo [1]) of 1500 mg/kg and an LD50 (in vivo [2]) of 2000 mg/kg.
